Laboratory results from patent US20220389160A1, “EFFECTIVE INTRANASAL DELIVERY TO BRAIN” (priority 2019, published 2022).

Test: PPA-Erbitux delivery to the brain by LC-MS/MS
Assay type: in vivo
Settings: normal mice; intranasal; after administration

With “PPA-Erbitux: therapeutic antibody-conjugated PPA” the “time of highest level in brain tissue” value was 2 h.
